Measured values reported in ChEMBL document CHEMBL1143857, “(Phenylpiperazinyl)cyclohexylureas: discovery of alpha1a/1d-selective adrenergic receptor antagonists for the treatment of benign prostatic hyperplasia/lower urinary tract symptoms (BPH/LUTS)” (Bioorg Med Chem Lett, 2008).

Chains of the proteins cited; added tags and fusions are not shown.
UniProt P35368, whole entry: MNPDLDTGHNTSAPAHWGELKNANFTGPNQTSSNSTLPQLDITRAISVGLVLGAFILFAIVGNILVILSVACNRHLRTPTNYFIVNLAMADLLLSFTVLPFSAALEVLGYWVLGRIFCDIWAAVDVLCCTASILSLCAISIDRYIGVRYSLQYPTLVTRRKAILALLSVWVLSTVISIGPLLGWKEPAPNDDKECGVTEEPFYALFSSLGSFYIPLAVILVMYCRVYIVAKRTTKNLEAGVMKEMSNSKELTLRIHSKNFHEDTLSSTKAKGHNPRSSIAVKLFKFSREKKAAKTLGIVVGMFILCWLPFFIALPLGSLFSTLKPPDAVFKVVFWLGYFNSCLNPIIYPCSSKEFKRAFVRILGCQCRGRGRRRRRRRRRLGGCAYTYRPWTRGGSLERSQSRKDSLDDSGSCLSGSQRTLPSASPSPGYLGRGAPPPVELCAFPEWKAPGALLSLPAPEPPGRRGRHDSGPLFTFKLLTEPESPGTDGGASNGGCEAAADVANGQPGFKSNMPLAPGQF

Target: Alpha-1B adrenergic receptor (Homo sapiens, UniProt P35368)
Test: Displacement of [125I]HEAT from human recombinant adrenergic Alpha-1B receptor

SMILES	Ki [µM]
COc1ccc(Cl)cc1NC(=O)NC1CCC(N2CCN(c3ccccc3OC(C)C)CC2)CC1 (cis isomer)	0.207
COc1ccc(Cl)cc1NC(=O)NC1CCC(N2CCN(c3ccccc3OC(C)C)CC2)CC1 (trans isomer)	0.081
COc1ccc(NC(=O)NC2CCC(N3CCN(c4ccccc4OC(C)C)CC3)CC2)c(OC)c1 (stereo in doubt; trans)	0.214
COc1ccc(NC(=O)NC2CCC(N3CCN(c4ccccc4OC(C)C)CC3)CC2)c(OC)c1 (stereo in doubt; cis)	0.475
